Biological target: Tyrosine-protein kinase BTK (Homo sapiens, UniProt Q06187)
Experiment: Inhibition of BTK (unknown origin) using peptide substrate in presence of ATP by caliper electrophoresis method

By UniProt entry, the sequences of proteins in these tests, tags left out. Where a name states a change or a piece, a line headed by the entry shows the natural chain unless it says otherwise.
UniProt Q06187: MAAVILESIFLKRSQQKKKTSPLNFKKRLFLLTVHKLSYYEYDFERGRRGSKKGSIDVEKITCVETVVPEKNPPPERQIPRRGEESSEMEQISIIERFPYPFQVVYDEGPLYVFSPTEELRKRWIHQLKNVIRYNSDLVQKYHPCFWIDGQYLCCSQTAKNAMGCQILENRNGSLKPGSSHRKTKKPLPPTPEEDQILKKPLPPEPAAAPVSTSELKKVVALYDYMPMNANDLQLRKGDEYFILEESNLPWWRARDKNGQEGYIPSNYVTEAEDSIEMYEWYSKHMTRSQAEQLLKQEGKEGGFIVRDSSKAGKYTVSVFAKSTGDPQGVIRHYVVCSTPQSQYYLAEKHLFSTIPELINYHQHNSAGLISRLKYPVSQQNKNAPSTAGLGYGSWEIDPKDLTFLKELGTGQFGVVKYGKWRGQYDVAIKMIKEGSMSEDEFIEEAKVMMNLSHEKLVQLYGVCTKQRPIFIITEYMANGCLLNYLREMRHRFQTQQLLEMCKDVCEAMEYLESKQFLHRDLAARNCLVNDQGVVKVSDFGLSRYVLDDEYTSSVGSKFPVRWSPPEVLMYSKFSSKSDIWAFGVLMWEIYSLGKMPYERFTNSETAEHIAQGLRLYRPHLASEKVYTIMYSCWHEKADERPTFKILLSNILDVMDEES

IC50: 2.9 nM
SMILES: CC(C)/C=C(\C#N)C(=O)N[C@H](C)Cn1nc(-c2ccc(Oc3ccccc3)cc2F)c2c(N)ncnc21

From ChEMBL document CHEMBL5104103 (J Med Chem, 2022)
